Source: ChEMBL document CHEMBL5727136, “Inhibitors of RPN11” (2018)

Assay: Biochemical Assay: In brief, this Rpn11 bioassay employs a fluorescent polarization readout based on the ability of the 26S proteasome to cleave the protein substrate including four tandem ubiquitin proteins fused to a peptide having a unique cysteine labeled with a fluorophore. Cleavage of this substrate by Rpn11 at the junction between the fourth ubiquitin and the peptide, releases the low molecular weight fluorescent peptide. Accordingly, inhibition of fluorescence correlates with inhibition of Rpn11. Inhibition is reported as the half maximal inhibitory concentration (IC50) for the candidate compound.The catalytic JAB1/MPN/Mov34 metalloenzyme (JAMM) motif of Rpn11 is found in 7 different human proteins including the Csn5 subunit of the COP9 signalosome, AMSH, AMSH-LP, the BRCC36 subunit of BRISC, MPND, and MYSM1. All of these enzymes cleave the isopeptide linkage that joins ubiquitin (or the ubiquitin-like protein Nedd8 in the case of Csn5) to a second molecule of ubiquitin or to a substrate. The conserved JAMM domain has the consensus sequence EXnHS/THX7SXXD, in which the histidine (His) and aspartic acid (Asp) residues bind the Zn2+ ion and the fourth coordination site is occupied by a water molecule that is engaged in hydrogen bonding with a conserved glutamic acid (Glu). […]

| Structure (SMILES) | IC50 |
| --- | --- |
| CNC(=O)c1cnc2c(S)cccc2c1 | 1.6 µM |
| O=C(NCCc1nccs1)c1cnc2c(S)cccc2c1 | 4.5 µM |
